US7163957B2, “3-(Cyclopenten-1-yl)-benzyl-or 3-(cyclopenten-1-yl)-heteroarylmethyl-amine derivatives and use thereof as medicines for treating schizophrenia” (Pierre Fabre Medicament, priority 2002, dated 2007)

Tested on: catalepsy
Assay: Cataleptigenic effects (catalepsy)
Settings: rat, in vivo; rats, oral route

With `Cc1nc2n(c(=O)c1CCN1CCC(c3noc4cc(F)ccc34)CC1)CCCC2` [Risperidone, risperidone, reference compound] the ED50 was 3.5 mg/kg.
